“And” between values parts separate entries of the source, which are not always exact repeats. Identical values can stand only once. The entries are a selection whose mix differs from that of the whole data set.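 Activity criterion: percent growth below 10, measured after cells in 96-well plates were exposed to a single compound concentration for 48 hours.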 The source made the active and inactive calls.
What was measured:
Experiment in all cases: NCI-60 one-dose screen, 48 h (100 = growth as untreated, 0 = no growth, -100 = all killed)
Settings in all cases: 10 µM
MOLT-4 leukemia = system: MOLT-4 leukemia
SR leukemia = system: SR leukemia
RPMI-8226 leukemia = system: RPMI-8226 leukemia
OVCAR-8 ovarian = system: OVCAR-8 ovarian
OVCAR-5 ovarian = system: OVCAR-5 ovarian
OVCAR-4 ovarian = system: OVCAR-4 ovarian
SK-OV-3 ovarian = system: SK-OV-3 ovarian
IGROV1 ovarian = system: IGROV1 ovarian
OVCAR-3 ovarian = system: OVCAR-3 ovarian
HS 578T breast = system: HS 578T breast
NCI/ADR-RES ovarian = system: NCI/ADR-RES ovarian
T-47D breast = system: T-47D breast
BT-549 breast = system: BT-549 breast
MDA-MB-435 melanoma = system: MDA-MB-435 melanoma
SW-620 colon = system: SW-620 colon
MCF7 breast = system: MCF7 breast
HCT-116 colon = system: HCT-116 colon
HCC-2998 colon = system: HCC-2998 colon
KM12 colon = system: KM12 colon

Measured: growth

Nc1cc([N+](=O)[O-])cc([N+](=O)[O-])c1O
inactive: MOLT-4 leukemia 104% and 96.1% | SR leukemia 97% and 102% | RPMI-8226 leukemia 111% and 95.2% | OVCAR-8 ovarian 104% and 101% | OVCAR-5 ovarian 96.3% and 101% | OVCAR-4 ovarian 103% and 106% | SK-OV-3 ovarian 107% and 102% | IGROV1 ovarian 123% and 110% | OVCAR-3 ovarian 110% and 102% | HS 578T breast 171% and 107% | NCI/ADR-RES ovarian 110% and 101% | T-47D breast 96.5% and 97.4% | BT-549 breast 100% | MDA-MB-435 melanoma 107% and 105% | SW-620 colon 132% and 107% | MCF7 breast 96.6% and 94% | HCT-116 colon 97.9% and 95.8% | HCC-2998 colon 103% and 101% | KM12 colon 98.4% and 108%

O=[N+]([O-])c1cc([N+](=O)[O-])c(O)c([N+](=O)[O-])c1.c1ccc(Cc2ccncc2)cc1
inactive: MOLT-4 leukemia 107% | SR leukemia 102% | RPMI-8226 leukemia 113% | OVCAR-8 ovarian 103% | OVCAR-5 ovarian 95.3% | OVCAR-4 ovarian 94.7% | SK-OV-3 ovarian 101% | IGROV1 ovarian 115% | OVCAR-3 ovarian 101% | HS 578T breast 106% | NCI/ADR-RES ovarian 115% | T-47D breast 91% | BT-549 breast 106% | MDA-MB-435 melanoma 103% | SW-620 colon 105% | MCF7 breast 93% | HCT-116 colon 105% | HCC-2998 colon 95.8% | KM12 colon 100%

CCCOP(=S)(Cl)OCCC
inactive: MOLT-4 leukemia 98.8% | SR leukemia 98% | RPMI-8226 leukemia 102% | OVCAR-8 ovarian 97.9% | OVCAR-5 ovarian 99.7% | OVCAR-4 ovarian 101% | SK-OV-3 ovarian 114% | IGROV1 ovarian 112% | OVCAR-3 ovarian 107% | HS 578T breast 105% | NCI/ADR-RES ovarian 105% | T-47D breast 104% | BT-549 breast 112% | MDA-MB-435 melanoma 99% | SW-620 colon 96.7% | MCF7 breast 97.9% | HCT-116 colon 108% | HCC-2998 colon 104% | KM12 colon 107%

O=[N+]([O-])c1cc([N+](=O)[O-])c(NCCO)c([N+](=O)[O-])c1
inactive: MOLT-4 leukemia 85.8% | SR leukemia 65.6% | RPMI-8226 leukemia 96.8% | OVCAR-8 ovarian 82.8% | OVCAR-5 ovarian 104% | OVCAR-4 ovarian 78.6% | SK-OV-3 ovarian 98.1% | IGROV1 ovarian 88.8% | OVCAR-3 ovarian 88.6% | HS 578T breast 120% | NCI/ADR-RES ovarian 90.1% | T-47D breast 102% | MDA-MB-435 melanoma 69.4% | SW-620 colon 69.8% | MCF7 breast 71.5% | HCT-116 colon 73.7% | HCC-2998 colon 119% | KM12 colon 92.9%

COc1ccc(C(O)(C(=O)OCCN2CCCCC2)c2ccc(OC)cc2)cc1
inactive: MOLT-4 leukemia 106% | SR leukemia 115% | RPMI-8226 leukemia 88.5% | OVCAR-8 ovarian 99.4% | OVCAR-5 ovarian 91.4% | OVCAR-4 ovarian 110% | SK-OV-3 ovarian 119% | IGROV1 ovarian 71% | OVCAR-3 ovarian 92.2% | HS 578T breast 99% | NCI/ADR-RES ovarian 95.6% | T-47D breast 97.1% | BT-549 breast 111% | MDA-MB-435 melanoma 116% | SW-620 colon 104% | MCF7 breast 106% | HCT-116 colon 103% | HCC-2998 colon 93.4% | KM12 colon 83.2%

CN(C)Nc1c([N+](=O)[O-])cc([N+](=O)[O-])cc1[N+](=O)[O-]
inactive: MOLT-4 leukemia 98.3% | SR leukemia 93.4% | RPMI-8226 leukemia 98.1% | OVCAR-8 ovarian 104% | OVCAR-5 ovarian 112% | OVCAR-4 ovarian 99.5% | SK-OV-3 ovarian 101% | IGROV1 ovarian 103% | OVCAR-3 ovarian 113% | HS 578T breast 109% | NCI/ADR-RES ovarian 105% | T-47D breast 93.1% | BT-549 breast 92.4% | MDA-MB-435 melanoma 107% | SW-620 colon 125% | MCF7 breast 87.9% | HCT-116 colon 94.5% | HCC-2998 colon 111% | KM12 colon 94.8%

O=C(OCCN1CCCCCCCC1)C(O)(c1ccccc1)c1ccccc1
inactive: MOLT-4 leukemia 104% | SR leukemia 121% | RPMI-8226 leukemia 102% | OVCAR-8 ovarian 101% | OVCAR-5 ovarian 91% | OVCAR-4 ovarian 102% | SK-OV-3 ovarian 101% | IGROV1 ovarian 104% | OVCAR-3 ovarian 108% | HS 578T breast 110% | NCI/ADR-RES ovarian 106% | T-47D breast 94.6% | BT-549 breast 104% | MDA-MB-435 melanoma 114% | SW-620 colon 109% | MCF7 breast 103% | HCT-116 colon 100% | HCC-2998 colon 109% | KM12 colon 105%

n1nc(-c2nn[nH]n2)n[nH]1
inactive: MOLT-4 leukemia 101% | SR leukemia 100% | RPMI-8226 leukemia 95.1% | OVCAR-8 ovarian 108% | OVCAR-5 ovarian 98.4% | OVCAR-4 ovarian 103% | SK-OV-3 ovarian 106% | IGROV1 ovarian 108% | OVCAR-3 ovarian 121% | HS 578T breast 92.7% | NCI/ADR-RES ovarian 110% | T-47D breast 91% | MDA-MB-435 melanoma 106% | SW-620 colon 107% | MCF7 breast 110% | HCT-116 colon 104% | HCC-2998 colon 102% | KM12 colon 109%

CN(Cc1cccnc1)C(=O)COc1ccc(Cl)c(Cl)c1.O=[N+]([O-])c1cc([N+](=O)[O-])c(O)c([N+](=O)[O-])c1
inactive: MOLT-4 leukemia 105% | SR leukemia 91.5% | RPMI-8226 leukemia 90.4% | OVCAR-8 ovarian 102% | OVCAR-5 ovarian 102% | OVCAR-4 ovarian 97% | SK-OV-3 ovarian 108% | IGROV1 ovarian 109% | OVCAR-3 ovarian 101% | HS 578T breast 116% | NCI/ADR-RES ovarian 102% | T-47D breast 89.3% | BT-549 breast 111% | MDA-MB-435 melanoma 107% | SW-620 colon 111% | MCF7 breast 87.6% | HCT-116 colon 111% | HCC-2998 colon 109% | KM12 colon 98.8%

O=C(O)C1(O)c2ccccc2-c2ccccc21
inactive: MOLT-4 leukemia 98% and 99% | SR leukemia 97.9% and 98.7% | RPMI-8226 leukemia 108% | OVCAR-8 ovarian 101% and 103% | OVCAR-5 ovarian 102% and 96.3% | OVCAR-4 ovarian 120% | SK-OV-3 ovarian 93.1% and 104% | IGROV1 ovarian 97.7% and 99.9% | OVCAR-3 ovarian 104% and 101% | HS 578T breast 109% and 103% | NCI/ADR-RES ovarian 99% and 99.6% | T-47D breast 86.4% and 105% | BT-549 breast 118% and 115% | MDA-MB-435 melanoma 103% | SW-620 colon 106% and 92.1% | MCF7 breast 102% | HCT-116 colon 91.4% and 92.9% | HCC-2998 colon 102% and 104% | KM12 colon 97.6% and 102%

O=[N+]([O-])N(CCOC(N(F)F)(N(F)F)N(F)F)CC([N+](=O)[O-])([N+](=O)[O-])[N+](=O)[O-]
inactive: MOLT-4 leukemia 106% | SR leukemia 96.3% | RPMI-8226 leukemia 108% | OVCAR-8 ovarian 103% | OVCAR-5 ovarian 104% | OVCAR-4 ovarian 113% | SK-OV-3 ovarian 96.4% | IGROV1 ovarian 106% | OVCAR-3 ovarian 118% | HS 578T breast 111% | NCI/ADR-RES ovarian 104% | T-47D breast 97.6% | BT-549 breast 111% | MDA-MB-435 melanoma 103% | SW-620 colon 103% | MCF7 breast 96.2% | HCT-116 colon 106% | HCC-2998 colon 113%

Nc1cccc(Cl)c1.O=[N+]([O-])c1cc([N+](=O)[O-])c(O)c([N+](=O)[O-])c1
inactive: MOLT-4 leukemia 102% | SR leukemia 101% | RPMI-8226 leukemia 92.5% | OVCAR-8 ovarian 102% | OVCAR-5 ovarian 104% | OVCAR-4 ovarian 110% | SK-OV-3 ovarian 108% | IGROV1 ovarian 103% | OVCAR-3 ovarian 114% | HS 578T breast 97.4% | NCI/ADR-RES ovarian 101% | T-47D breast 91.8% | BT-549 breast 97.5% | MDA-MB-435 melanoma 108% | SW-620 colon 107% | MCF7 breast 91.9% | HCT-116 colon 98.5% | HCC-2998 colon 104% | KM12 colon 98.8%

CNc1ccccc1.O=[N+]([O-])c1cc([N+](=O)[O-])c(O)c([N+](=O)[O-])c1
inactive: MOLT-4 leukemia 99.5% | SR leukemia 95% | RPMI-8226 leukemia 98.5% | OVCAR-8 ovarian 106% | OVCAR-5 ovarian 108% | OVCAR-4 ovarian 91.5% | SK-OV-3 ovarian 107% | IGROV1 ovarian 116% | OVCAR-3 ovarian 121% | HS 578T breast 115% | NCI/ADR-RES ovarian 110% | T-47D breast 105% | BT-549 breast 116% | MDA-MB-435 melanoma 99.5% | SW-620 colon 99.4% | MCF7 breast 96.3% | HCT-116 colon 105% | HCC-2998 colon 107% | KM12 colon 107%

O=[N+]([O-])c1ccc(OP2(=O)COCCO2)cc1 (stereo not given)
inactive: MOLT-4 leukemia 91.5% | SR leukemia 79.8% | RPMI-8226 leukemia 101% | OVCAR-8 ovarian 120% | OVCAR-5 ovarian 101% | OVCAR-4 ovarian 102% | SK-OV-3 ovarian 112% | IGROV1 ovarian 109% | OVCAR-3 ovarian 112% | HS 578T breast 133% | NCI/ADR-RES ovarian 99.4% | T-47D breast 98% | BT-549 breast 123% | MDA-MB-435 melanoma 110% | SW-620 colon 103% | MCF7 breast 104% | HCT-116 colon 103% | HCC-2998 colon 106% | KM12 colon 103%

CCN(C)CC.O=[N+]([O-])c1cc([N+](=O)[O-])c(O)c([N+](=O)[O-])c1
inactive: MOLT-4 leukemia 91% | SR leukemia 106% | RPMI-8226 leukemia 97.2% | OVCAR-8 ovarian 115% | OVCAR-5 ovarian 105% | OVCAR-4 ovarian 104% | SK-OV-3 ovarian 94.1% | IGROV1 ovarian 98.9% | OVCAR-3 ovarian 111% | HS 578T breast 96.7% | NCI/ADR-RES ovarian 101% | T-47D breast 96.6% | BT-549 breast 90.9% | MDA-MB-435 melanoma 100% | SW-620 colon 98.4% | MCF7 breast 92.3% | HCT-116 colon 87.9% | HCC-2998 colon 103% | KM12 colon 101%

NC(=NCCN/C(N)=N/[N+](=O)[O-])N[N+](=O)[O-]
inactive: MOLT-4 leukemia 103% | SR leukemia 108% | RPMI-8226 leukemia 104% | OVCAR-8 ovarian 98.9% | OVCAR-5 ovarian 114% | OVCAR-4 ovarian 112% | SK-OV-3 ovarian 100% | IGROV1 ovarian 131% | OVCAR-3 ovarian 110% | HS 578T breast 92.2% | NCI/ADR-RES ovarian 97.1% | BT-549 breast 82.3% | MDA-MB-435 melanoma 110% | SW-620 colon 104% | MCF7 breast 86.2% | HCT-116 colon 89% | HCC-2998 colon 95.8% | KM12 colon 109%

Reference: PubChem BioAssay (NCI)
